# From PubChem BioAssay AID624377 (The Scripps Research Institute Molecular Screening Center, 2012)
# The chains behind the UniProt entries cited, without tags or fusion partners. Where a name states a change or a piece, a line headed by the entry shows the natural chain unless it says otherwise.
# UniProt Q9ULH1: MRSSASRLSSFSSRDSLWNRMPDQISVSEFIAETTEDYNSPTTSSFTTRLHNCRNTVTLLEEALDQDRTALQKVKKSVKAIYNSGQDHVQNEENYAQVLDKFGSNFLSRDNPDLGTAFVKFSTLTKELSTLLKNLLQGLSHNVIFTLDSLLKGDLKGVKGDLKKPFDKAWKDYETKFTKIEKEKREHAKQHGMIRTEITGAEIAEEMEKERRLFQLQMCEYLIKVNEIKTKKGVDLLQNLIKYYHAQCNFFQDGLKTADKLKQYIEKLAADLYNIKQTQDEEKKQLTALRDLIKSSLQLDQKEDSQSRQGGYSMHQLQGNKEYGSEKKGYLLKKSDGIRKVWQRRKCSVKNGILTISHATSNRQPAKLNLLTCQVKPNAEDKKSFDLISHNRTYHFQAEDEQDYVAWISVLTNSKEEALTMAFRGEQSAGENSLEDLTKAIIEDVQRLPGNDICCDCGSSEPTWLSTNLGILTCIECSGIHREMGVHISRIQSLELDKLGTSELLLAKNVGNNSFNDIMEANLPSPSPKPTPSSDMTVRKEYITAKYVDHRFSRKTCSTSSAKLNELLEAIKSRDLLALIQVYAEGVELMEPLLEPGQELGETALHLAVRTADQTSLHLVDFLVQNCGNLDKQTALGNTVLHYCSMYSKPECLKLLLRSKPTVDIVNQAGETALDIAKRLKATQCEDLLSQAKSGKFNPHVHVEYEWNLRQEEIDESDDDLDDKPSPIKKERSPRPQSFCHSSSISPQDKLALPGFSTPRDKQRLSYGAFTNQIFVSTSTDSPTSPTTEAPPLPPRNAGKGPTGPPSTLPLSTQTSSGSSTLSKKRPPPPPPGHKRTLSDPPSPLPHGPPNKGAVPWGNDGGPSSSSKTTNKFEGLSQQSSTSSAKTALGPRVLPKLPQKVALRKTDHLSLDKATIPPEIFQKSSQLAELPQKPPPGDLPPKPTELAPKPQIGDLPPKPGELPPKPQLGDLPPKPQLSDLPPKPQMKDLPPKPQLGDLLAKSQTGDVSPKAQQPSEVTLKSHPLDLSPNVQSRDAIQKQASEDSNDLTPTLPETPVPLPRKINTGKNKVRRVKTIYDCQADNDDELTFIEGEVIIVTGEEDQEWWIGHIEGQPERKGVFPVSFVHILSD
# The entries are a selection whose mix differs from that of the whole data set. Activity calls are given as the source filed them. Cut-off read from the data, not from the text of the source: active = inhibition above about 25%; inactive = the rest.
# Target: Arf-GAP with SH3 domain, ANK repeat and PH domain-containing protein 1 (Homo sapiens) (UniProt Q9ULH1)
# Experiment: blockers of ASAP1-stimulated ARF1 GTP hydrolysis – biochemical, fluorescence polarization, primary screen (AID 624377);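 note: 0% = vehicle with enzyme and substrate and 100% = no enzyme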
# Conditions: GDP FP detection, at 16.5 µM, active compounds read high
row,Compound,inhibition
1,O=C(O)COc1ccc([As](=O)(O)O)cc1[N+](=O)[O-],inactive: -0.19%
2,Nc1ccccc1[As](=O)(O)c1ccccc1,inactive: 6.41%
3,CCOP1(=S)c2c(C)nn(CCC#N)c2N=C(c2ccccc2F)N1C (configuration not stated),inactive: -1.93%
4,O=P(Nc1nccs1)(Oc1ccccc1)Oc1ccccc1,inactive: -7.28%
5,O=[N+]([O-])c1ccc2c(c1)nnn2O,inactive: 2.42%
6,CN(C)C(=O)c1cc([N+](=O)[O-])cc2c1-c1c(cc([N+](=O)[O-])cc1[N+](=O)[O-])C2=O,inactive: -2.12%
7,CN(C(=O)Cc1ccc(Cl)c(Cl)c1)[C@H]1CC[C@@]2(CCCO2)C[C@@H]1N1CCCC1,inactive: 3.72%
8,N#CCCN(C(=O)COC(=O)C(O)(c1ccccc1)c1ccccc1)c1ccc(F)cc1,inactive: 7.81%
9,CN(C(=O)Cc1ccccc1)[C@@H]1CC[C@]2(CCCO2)C[C@H]1N1CCCC1,inactive: -0.83%
10,CCOP1(=S)c2c(C)nn(CCC#N)c2N=C(c2ccc(F)cc2)N1C (configuration not stated),inactive: 0.02%
11,NC(=O)Nc1ccc([As](=O)(O)O)cc1,inactive: 5.63%
12,Cc1cccc(OCC(=O)OC2CN3CCC2CC3)c1 (configuration not stated),inactive: -10.3%
13,O=[As](O)(c1cccc(O)c1)c1cccc(O)c1,inactive: -5.96%
14,O=[As](O)(O)c1cccnc1,inactive: -5.89%
15,COc1cc(C(=O)NCC2(N3CCOCC3)CCCCC2)cc(Cl)c1OC(C)C,inactive: -4.45%
16,CS(=O)(=O)c1ccc(Cl)c(NC(=O)COC(=O)C(O)(c2ccccc2)c2ccccc2)c1,inactive: 18.3%
17,O=C(OC1CN2CCC1CC2)c1ccc(Cl)cc1 (configuration not stated),inactive: -4.47%
18,COc1cc(C2NCCC3(OCCO3)C2(C)C)cc(OC)c1OC (configuration not stated),inactive: -6.87%
19,CCOP(=O)(Nc1cccc2ccccc12)OCC,inactive: 8.58%
20,CCCOP(=S)(Nc1nc(N)cc(=O)[nH]1)OCCC,inactive: 0.67%
21,Nc1cccc2c([As](=O)(O)O)cccc12,inactive: -3.49%
22,Cc1ccc(NCCc2c([N+](=O)[O-])cc([N+](=O)[O-])cc2[N+](=O)[O-])cc1,inactive: -2.87%
23,Clc1n[nH]nc1-c1nn[nH][15n]1,inactive: -5.31%
24,O=P1(N(CCCl)CCCl)NCCC(C(F)(F)F)O1 (configuration not stated),inactive: -2.79%
25,CC(C)(C)C(=O)NC(Sc1ncccn1)C(Cl)(Cl)Cl (configuration not stated),inactive: -6.58%
26,CCOP(=O)(Nc1ccc(C)cn1)OCC,inactive: -15.5%
27,CN(CCCl)Cc1cc(Cl)c(NC2=NCCN2)c(Cl)c1,inactive: -4.81%
